From patent US11684676B2, “Site-specific antibody-drug conjugates by ADP-ribosyl cyclases” (University of Southern California, priority 2020, dated 2023)

Legend:
[1] = Pharmacokinetics of CD38 C-fusion IgG in mice; format: in vivo; settings: i.v. 3 mg/kg, CD-1 mice
Experimental: Pharmacokinetic Studies of CD38 C-Fusion IgG in Mice.
Five female CD-1 mice (6 weeks) were given CD38 C-fusion IgG in DPBS by tail vein intravenous (IV) injection at 3 mg/kg. Tail venipuncture was then performed for blood collection at different time points (0.5, 5, 9, 24, 48, 72, 120, 168 and 264 hours). Plasma concentrations of CD38 C-fusion IgG were determined using two different sandwich ELISAs. Standards used for the ELISA-based quantification were prepared through serial dilutions of 100 μg mL-1 antibody fusion in mouse plasma.
For the first sandwich ELISA, anti-human IgG (H+L) antibody (8 μg mL-1) (Seracare, MA) was coated on ELISA plates overnight at room temperature, followed by blocking with 3% BSA in PBS (pH 7.4) for 2 hours at room temperature. […] Finally, after three times wash with 0.1% PBST, 80 μL of QuantaBlu fluorogenic substrates (ThermoFisher Scientific, MA) were added and allowed for 5-minute incubation prior to measurements of the fluorescence at 425 nm by the Synergy H1 plate reader (BioTek, VT).
For the second sandwich ELISA, the same capture antibody, anti-human IgG (H+L) antibody, was used to capture the fusion antibody in plasma samples. […] Following three times wash with 0.1% PBST, 80 μL of the fluorogenic substrates were added and followed by measurements of fluorescence intensities by the plate reader. […]

[2] = target: T1, recombinant HER2 extracellular domain (Homo sapiens, UniProt P04626); test: Binding to recombinant HER2-Fc fusion by ELISA; settings: read-out: EC50 for recombinant HER2 (binding affinity)
T1 construct: for different constructs against the recombinant HER2 extracellular domain; purchased R&D Systems 1129-ER-050

[3] = Fluorescence-based CD38 ADP-ribosyl cyclase activity assay of CD38 IgG fusions; format: biochemical, human; settings: NGD+ substrate, cyclic GDP-ribose fluorescence; in contrast to CD38 catalytic domain
Excerpt: Enzymatic Activities of CD38 and CD38 IgG Fusions.
NGD^+ (Sigma-Aldrich, MO) was used as a substrate to determine ADP-ribosyl cyclase activity of purified CD38 and CD38 C-fusion IgG. Cyclic GDP-ribose (cGDPR) form from CD38 cyclase activity is characterized by fluorescence emission at 410 nm (excitation at 300 nm).

[4] = tested on: HCC1954, MCF7, MDA-MB-231, and MDA-MB-468 cells

| Substance | half-life ([1]; ELISA detection by anti-CD38) [h] | half-life ([1]; ELISA detection by anti-kappa light chain) [h] | EC50 [2] [nM] | CD38 enzymatic activity [3] | cytotoxicity [4] |
| --- | --- | --- | --- | --- | --- |
| CD38 C-fusion IgG: extracellular domain of CD38 fused to the C-terminus of Herceptin heavy chain with a peptide linker (SEQ ID NO: 18) | 33.14 ± 19.49 | 37.41 ± 16.63 | 1.02 ± 0.47 | significantly higher activity | no cytotoxicity |
| Herceptin: full-length anti-human HER2 antibody [reference compound] |  |  |  |  | no cytotoxicity |
